The target in the test is 5-hydroxytryptamine receptor 1A (Homo sapiens, UniProt P08908). Kind of test: Compound was tested for binding affinity against cloned human 5-hydroxytryptamine 1A receptor expressed in CHO-K1 cells. The class given is cell-based. In a few lines: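 CHO cell membranes expressing cloned human 5-HT1A, 5-HT1Dα or 5-HT1Dβ receptors, or rat D2 receptors (20-60 µg protein). Radioligands: [3H]-8-OH-DPAT (5-HT1A), [3H]-5-HT (5-HT1D), [3H]U-86170 (D2). Buffers at pH 7.4: 50 mM Tris/5 mM MgCl2 (5-HT1A); the same with 0.1% ascorbic acid (5-HT1D); 20 mM HEPES/10 mM MgSO4 (D2). Nonspecific binding defined with lisuride, serotonin and haloperidol respectively. 11 concentrations in duplicate, 1 h at room temperature (5-HT1D protected from light), filtration.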

Protein sequences, listed by entry. Tags and fused reporters are not part of them.
UniProt P08908, whole entry: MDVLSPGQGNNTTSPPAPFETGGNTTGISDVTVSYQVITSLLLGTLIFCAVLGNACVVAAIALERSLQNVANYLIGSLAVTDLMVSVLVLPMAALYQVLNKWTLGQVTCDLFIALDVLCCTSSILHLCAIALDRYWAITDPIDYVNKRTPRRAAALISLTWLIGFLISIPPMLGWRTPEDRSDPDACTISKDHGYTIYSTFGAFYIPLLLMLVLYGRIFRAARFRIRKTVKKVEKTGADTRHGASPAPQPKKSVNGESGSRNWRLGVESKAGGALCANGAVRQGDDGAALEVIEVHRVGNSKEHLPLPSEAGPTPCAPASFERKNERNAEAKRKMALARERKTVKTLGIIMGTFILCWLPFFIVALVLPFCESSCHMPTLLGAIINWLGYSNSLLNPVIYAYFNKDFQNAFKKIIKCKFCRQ

Consider `CNS(=O)(=O)Cc1ccc2[nH]cc(CCN(C)C)c2c1`, for which the affinity, expressed as Ki, was 341 nM.

The record behind these values is ChEMBL document CHEMBL1129409, “5-HT1D receptor agonist properties of novel 2-[5-[[(trifluoromethyl)sulfonyl]oxy]indolyl]ethylamines and their use as synthetic intermediates” (J Med Chem, 1996).
